Reference: PubChem BioAssay AID504333 (National Center for Advancing Translational Sciences (NCATS), 2011)
Only a part is listed here, and it is no random draw. Records with an inconclusive call do not appear. Activity calls are given as the source filed them. Calls come from the whole dose curve; as a rule, active = well fitted inhibition curve with a large enough effect; inconclusive = small, poorly fitted or top-dose-only effect; inactive = no such curve, though single readings can be large or run the other way.

Amino acid sequences for entries named in this document (tags omitted).
UniProt Q9UIF8, whole entry: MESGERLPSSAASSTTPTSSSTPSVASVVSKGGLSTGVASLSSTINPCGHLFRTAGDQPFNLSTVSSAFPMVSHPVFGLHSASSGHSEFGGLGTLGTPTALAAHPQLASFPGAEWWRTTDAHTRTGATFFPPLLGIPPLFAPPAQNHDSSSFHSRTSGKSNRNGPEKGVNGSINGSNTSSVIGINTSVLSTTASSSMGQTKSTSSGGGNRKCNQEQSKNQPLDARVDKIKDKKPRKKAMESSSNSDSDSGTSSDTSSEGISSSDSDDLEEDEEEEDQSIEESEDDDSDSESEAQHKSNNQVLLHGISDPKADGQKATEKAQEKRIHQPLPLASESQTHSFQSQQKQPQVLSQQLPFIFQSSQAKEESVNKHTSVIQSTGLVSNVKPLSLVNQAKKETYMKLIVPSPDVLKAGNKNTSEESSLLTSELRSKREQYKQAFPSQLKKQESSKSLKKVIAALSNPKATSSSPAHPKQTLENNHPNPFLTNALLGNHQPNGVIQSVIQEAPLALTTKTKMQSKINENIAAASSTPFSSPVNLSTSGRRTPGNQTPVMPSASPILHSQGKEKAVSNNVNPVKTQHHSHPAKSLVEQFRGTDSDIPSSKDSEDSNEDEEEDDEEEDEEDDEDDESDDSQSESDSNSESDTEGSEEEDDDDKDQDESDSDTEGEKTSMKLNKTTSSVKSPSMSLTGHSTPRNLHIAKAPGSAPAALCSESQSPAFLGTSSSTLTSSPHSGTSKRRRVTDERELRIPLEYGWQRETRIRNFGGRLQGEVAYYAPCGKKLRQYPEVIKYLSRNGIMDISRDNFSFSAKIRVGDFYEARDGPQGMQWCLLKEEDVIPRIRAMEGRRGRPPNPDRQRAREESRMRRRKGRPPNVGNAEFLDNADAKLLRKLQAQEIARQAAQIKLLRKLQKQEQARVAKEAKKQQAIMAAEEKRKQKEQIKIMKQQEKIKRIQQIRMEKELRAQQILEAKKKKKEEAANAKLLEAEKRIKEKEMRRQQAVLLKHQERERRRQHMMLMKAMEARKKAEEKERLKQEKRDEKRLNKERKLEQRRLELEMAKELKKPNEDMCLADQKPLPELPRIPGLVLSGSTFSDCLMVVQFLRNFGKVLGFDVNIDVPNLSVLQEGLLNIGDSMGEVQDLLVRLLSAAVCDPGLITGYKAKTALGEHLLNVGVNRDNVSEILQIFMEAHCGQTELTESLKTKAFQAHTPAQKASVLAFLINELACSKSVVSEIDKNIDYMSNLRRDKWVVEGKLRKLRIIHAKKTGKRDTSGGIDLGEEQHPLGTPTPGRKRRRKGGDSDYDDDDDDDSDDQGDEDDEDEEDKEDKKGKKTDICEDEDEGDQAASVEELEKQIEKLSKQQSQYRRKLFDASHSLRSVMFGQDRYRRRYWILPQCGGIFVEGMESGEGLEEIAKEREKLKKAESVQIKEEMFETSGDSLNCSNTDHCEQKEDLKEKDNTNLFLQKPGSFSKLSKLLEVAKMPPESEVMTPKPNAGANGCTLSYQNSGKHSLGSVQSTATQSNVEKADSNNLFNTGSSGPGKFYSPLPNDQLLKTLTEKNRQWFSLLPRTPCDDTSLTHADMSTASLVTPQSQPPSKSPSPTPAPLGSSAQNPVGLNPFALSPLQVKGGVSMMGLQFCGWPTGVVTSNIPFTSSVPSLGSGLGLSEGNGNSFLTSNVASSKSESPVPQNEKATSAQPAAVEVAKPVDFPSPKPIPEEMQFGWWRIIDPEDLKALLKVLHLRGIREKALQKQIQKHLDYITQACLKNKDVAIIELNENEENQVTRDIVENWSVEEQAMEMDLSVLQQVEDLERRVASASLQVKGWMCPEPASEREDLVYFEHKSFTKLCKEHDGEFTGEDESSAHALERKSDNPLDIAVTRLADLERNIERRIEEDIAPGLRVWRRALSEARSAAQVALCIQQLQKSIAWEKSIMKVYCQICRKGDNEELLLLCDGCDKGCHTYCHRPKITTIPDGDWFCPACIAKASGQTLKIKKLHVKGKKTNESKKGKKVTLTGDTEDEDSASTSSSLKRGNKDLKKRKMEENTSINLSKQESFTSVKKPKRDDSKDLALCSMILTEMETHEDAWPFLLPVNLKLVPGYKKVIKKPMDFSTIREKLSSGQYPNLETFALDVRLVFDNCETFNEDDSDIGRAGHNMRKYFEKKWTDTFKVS

Target: Bromodomain adjacent to zinc finger domain protein 2B (Homo sapiens) (UniProt Q9UIF8)
Assay: qHTS Assay for Inhibitors of BAZ2B; note: nearly all actives have a fitted effect of over 60% in size
Settings: AlphaScreen BAZ2B-H3K14Ac peptide displacement; series mostly up to 114 µM; activity change, negative = inhibition: at the top concentration
% is set by controls: 0 for no effect and ±100 for the full control effect.

SMILES | activity change, negative = inhibition
O=C(OCCCN1CCCC1)C(O)(c1ccccc1)C1CCCCC1 (stereo not drawn) | inactive: 1.19%
COc1ccccc1OP(C)(=O)Nc1c(C)n(C)n(-c2ccccc2)c1=O (stereo not drawn) | inactive: 1.05%
CCc1ccc(OP(C)(=O)Nc2cccnc2)cc1 (stereo not drawn) | inactive: -0.844%
CP(=O)(Oc1ccccc1)N1CCOC1=O (stereo not drawn) | inactive: 5.07%
COc1ccc(OP(C)(=O)Nc2ccc(Br)cc2)cc1 (stereo not drawn) | inactive: 7.95%
CCN(CC)CC(O)COC(=O)C(O)(c1ccccc1)C1CCCCC1 (stereo not drawn) | inactive: -2.95%
CN(C)C(=O)c1c([N+](=O)[O-])cc([N+](=O)[O-])cc1[N+](=O)[O-] | inactive: -14.1%
COc1ccccc1OP(C)(=O)Nc1ccccc1Br (stereo not drawn) | inactive: 10.5%
CP(=O)(Nc1ccc(Cl)cc1)Oc1ccc(F)cc1 (stereo not drawn) | inactive: 9.65%
CCOC(=O)c1ccc(NP(C)(=O)Oc2ccc(Cl)cc2)cc1 (stereo not drawn) | inactive: 0.381%
CP(=O)(OC12CC3CC(CC(C3)C1)C2)OC12CC3CC(CC(C3)C1)C2 | inactive: 2.12%
COc1ccccc1OP(C)(=O)Nc1ccc(C)c(C)c1 (stereo not drawn) | inactive: 6.91%
COc1ccc(OP(C)(=O)Nc2ccccc2Br)cc1 (stereo not drawn) | inactive: 10.3%
Cc1cc(C)cc(OP(C)(=O)Nc2cccc(C(F)(F)F)c2)c1 (stereo not drawn) | inactive: 3.84%
CP(=O)(OCCOc1ccccc1)OCCOc1ccccc1 | inactive: 9.4%
CP(=O)(Nc1ccc(Cl)cc1Cl)Oc1ccccc1 (stereo not drawn) | inactive: 3.43%
Cc1nc2ccc3ccccc3c2o1.O=[N+]([O-])c1cc([N+](=O)[O-])c(O)c([N+](=O)[O-])c1 | inactive: 1.22%

SMILES | activity change, negative = inhibition
COc1ccc(OP(C)(=O)Nc2ccccn2)cc1 (stereo not drawn) | inactive: 2.38%
CN(C)CCOC(=O)C(O)(c1ccccc1)C1CCCC1 (stereo not drawn) | inactive: 5.5%
COc1ccccc1OP(C)(=O)Nc1ccc(Br)cc1 (stereo not drawn) | inactive: 0.5%
COc1ccccc1OP(C)(=O)Nc1ccc(C)cc1C (stereo not drawn) | inactive: 1.56%
CP(=O)(Nc1ccccn1)Oc1ccccc1 (stereo not drawn) | inactive: 8.17%
CCc1ccc(OP(C)(=O)O)cc1 | inactive: -5.72%
Cc1c(NP(C)(=O)Oc2ccc(C(C)C)cc2)c(=O)n(-c2ccccc2)n1C (stereo not drawn) | inactive: 8.01%
CP(=O)(Nc1ccccc1F)Oc1ccccc1 (stereo not drawn) | inactive: 12.4%
CC(C)c1ccc(OP(C)(=O)Nc2ccc(SC(F)(F)F)cc2)cc1 (stereo not drawn) | inactive: -3.1%
O=C(OCCN1CCN(CCOCc2ccccc2)CC1)C(O)(c1ccccc1)c1ccccc1 | inactive: -34.4%
CCOC(=O)c1ccc(NP(C)(=O)Oc2ccc(F)cc2)cc1 (stereo not drawn) | inactive: 1.23%
COc1ccc(OP(C)(=O)Nc2ccc(SC(F)(F)F)cc2)cc1 (stereo not drawn) | inactive: -0.627%
CP(=O)(Nc1ccccc1)Oc1ccc(F)cc1 (stereo not drawn) | inactive: 10.1%
CCCCCOc1ccc(NP(C)(=O)Oc2ccc(Cl)cc2Cl)cc1 (stereo not drawn) | inactive: -13.7%
CCN(CC)CCCOC(=O)C(O)(c1ccccc1)C1CCCCC1 (stereo not drawn) | inactive: 0.802%
CN(C)CCOC(=O)C(O)(c1ccccc1)C1CCCCC1 (stereo not drawn) | inactive: -2.26%
